The text below walks through data of PubChem BioAssay AID538 (PCMD, 2006).

Amino acid sequences for entries named in this document (tags omitted). Residues count along the entry.
UniProt P09871, 16-437 limits assumed: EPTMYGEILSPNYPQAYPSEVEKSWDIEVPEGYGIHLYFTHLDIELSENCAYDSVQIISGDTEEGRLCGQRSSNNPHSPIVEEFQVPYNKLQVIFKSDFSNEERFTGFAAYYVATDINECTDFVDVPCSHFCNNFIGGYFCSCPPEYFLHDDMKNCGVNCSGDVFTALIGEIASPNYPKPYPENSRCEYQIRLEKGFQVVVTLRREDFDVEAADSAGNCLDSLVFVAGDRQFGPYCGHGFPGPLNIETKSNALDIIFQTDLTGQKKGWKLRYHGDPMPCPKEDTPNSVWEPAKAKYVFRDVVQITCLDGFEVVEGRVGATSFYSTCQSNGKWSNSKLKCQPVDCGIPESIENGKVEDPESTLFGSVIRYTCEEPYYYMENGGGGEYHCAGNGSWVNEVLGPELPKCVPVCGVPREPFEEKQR
UniProt P09871, 438-688 limits assumed: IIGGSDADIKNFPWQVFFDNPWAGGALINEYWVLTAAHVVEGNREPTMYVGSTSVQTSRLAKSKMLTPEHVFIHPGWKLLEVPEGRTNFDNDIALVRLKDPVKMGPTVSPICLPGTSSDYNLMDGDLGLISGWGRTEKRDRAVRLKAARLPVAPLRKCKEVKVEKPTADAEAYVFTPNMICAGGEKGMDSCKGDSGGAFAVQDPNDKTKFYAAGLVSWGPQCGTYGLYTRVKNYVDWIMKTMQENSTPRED

The structures appear in SMILES notation. The entries are a selection whose mix differs from that of the whole data set. The source made the active and inactive calls.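 Rule for the calls: active = inhibition above 20% in each of the two 10-compound mixture wells holding the compound; inactive = the rest.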

The experiment deals with Complement C1s subcomponent (Homo sapiens) (UniProt P09871). Put plainly: complement C1s protease inhibitors, primary screen, biochemical, 10-compound mixtures (AID 538).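 Note: 0% = enzyme wells lacking compound mixture and 100% = no-enzyme blank wells.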 As to conditions: purified C1s, fluorogenic AMC substrate, pooled mixtures; screened at 5 µM (by protocol).
Take `CP(=O)(Nc1ccc2c(c1)OCCO2)Oc1ccccc1` (stereo not drawn): the mean inhibition % of two 10-compound mixtures (hits give high values) was inactive: 7.38%.
Next, `Cc1ccccc1NP(C)(=O)Nc1ccccc1C`: inactive: -3.52%.
With `CCOP(C)(=S)SCC(=O)NC(C)(CC)C(=O)O` (stereo not drawn) the figure was inactive: -0.06%; with `CN(C)CCOC(=O)C(O)(c1ccccc1)C1CCCCC1` (stereo not drawn), inactive: -5.05%.
Next, `CP(=O)(Nc1ccccc1F)Oc1ccccc1` (stereo not drawn): inactive: 13.2%.
`CP(=O)(Nc1ccccn1)Oc1ccccc1` (stereo not drawn): the mean inhibition % of two 10-compound mixtures (hits give high values) was inactive: 8.76%.
With `Cc1nc2ccc3ccccc3c2o1.O=[N+]([O-])c1cc([N+](=O)[O-])c(O)c([N+](=O)[O-])c1`, the mean inhibition % of two 10-compound mixtures (hits give high values) is inactive: -21.1%.
Next, `COc1ccccc1OP(C)(=O)Nc1ccc(C)c(C)c1` (stereo not drawn): inactive: 11%; `CCN(CC)CC(O)COC(=O)C(O)(c1ccccc1)C1CCCCC1` (stereo not drawn): inactive: -28.9%; `COc1ccccc1OP(C)(=O)Nc1c(C)n(C)n(-c2ccccc2)c1=O` (stereo not drawn): inactive: -24.4%.
In the case of `CP(=O)(Oc1ccccc1)N1CCOC1=O` (stereo not drawn), the mean inhibition % of two 10-compound mixtures (hits give high values) is inactive: -19.2%.
With `CCOP(C)(=S)SCC(=O)NC(C)C(=O)O` (stereo not drawn) the figure was inactive: -16.2%; with `CP(=O)(NC(=O)Nc1ccccc1)Oc1ccccc1` (stereo not drawn), inactive: -7.62%; with `CP(=S)(Nn1cnnc1)Oc1ccccc1` (stereo not drawn), inactive: 2.06%.
Next, `Cc1ccc(NP(C)(=O)Oc2ccccc2)c(C)c1` (stereo not drawn): inactive: -0.575%; `COc1ccccc1OP(C)(=O)Nc1ccc(C)cc1` (stereo not drawn): inactive: 1.35%; `Cc1ccc(C)c(NP(C)(=O)Oc2ccccc2)c1` (stereo not drawn): inactive: -3.23%.
With `Cc1nc2ccc3ccccc3c2s1.O=[N+]([O-])c1cc([N+](=O)[O-])c(O)c([N+](=O)[O-])c1`, the mean inhibition % of two 10-compound mixtures (hits give high values) was inactive: 18.5%.
